We go through one substance from patent US9220680B2, “Compositions and methods for localized drug delivery through mammary papillae” (South Dakota State University, priority 2012, dated 2015).

The data set can be described thus: In vitro penetration and permeation via excised porcine mammary papilla, Franz diffusion cell (Example 1). It counts as in vitro ADME. The method, then: Drug penetration and permeation via mammary papillae was performed in a Franz diffusion cell using excised porcine mammary papilla. […] The transport studies were performed at time points for 6 and 48 hours.
In a separate study to evaluate the drug retention and disposition, the treatment was removed after 6 hours and the study was continued until the 48 hour mark. Samples were withdrawn from the receptor compartment at different time points. At the end of study, the mammary papilla was cut to 2 mm thick cylindrical sections from the top to the base of the tissue and was digested using a tissue solubilizer. The drug concentrations were determined by liquid scintillation counting.
Methods for the preparation of porcine mammary papilla. Freshly excised strips of porcine mammary papilla (6-7 months old animals) were washed with deionized water followed by removal of subcutaneous fatty tissue using a scalpel. Keeping the mammary papilla in the center, 3 cm×3 cm sized specimens of the tissue were excised, subcutaneous fat tissue was removed, and the tissue was frozen at −20° C. until used for the drug penetration and permeation studies. […]
Extraction of drugs from the mammary papilla. […] These sections were homogenized, the drug was extracted, and the drug concentration was determined by radioactive counts.

Turning to bovine serum albumin [BSA], the “Retention in mammary papilla (in words)” value (6 and 48 hours) is on record as “mainly retained in the mammary papilla tissue”. In addition, the “Permeation across mammary papilla (in words)” value (treatment up to 48 hours) is given as “not found to penetrate across the mammary papilla to a significant extent”.
